# Data taken from patent US11406613B2, “Treatment of osteoarthritis” (ST GEORGE'S HOSPITAL MEDICAL SCHOOL, priority 2016, dated 2022).
# Assays:
# [1] = system: hand OA participants; details: result in words
# [2] = system: hand OA participants; details: number of adverse events recorded in treatment group
structure (smiles),measurement,setting,value
"CC(C)C[C@H](CN)CC(=O)O [Pregabalin, (3S)-3-(aminomethyl)-5-methylhexanoic acid]",Analgesic efficacy over placebo relative to duloxetine (AUSCAN pain outcomes and NRS),[1],greater analgesic efficacy over placebo than duloxetine over placebo
same,Side effects: Endocrine/Metabolic,[2],1
